# According to US20200179290A1, “AMORPHOUS POWDER COMPRISING AN ANGIOTENSIN RECEPTOR BLOCKER AND A NEUTRAL ENDOPEPTIDASE INHIBITOR” (Quimica Sintetica, S.A., priority 2015, published 2020):
# Assay: pH of the solution in water/acetone mixture
# Type: physicochemical
# Conditions: water/acetone mixture of WO '546 Example 1
# Description: Sodium hydroxide can be preferably added in the form of an aqueous solution if the previous step was performed in a water miscible solvent alone; alternatively, sodium hydroxide can be added in solid (powder) form. Depending on the way of addition of NaOH, the resulting mixture may be, in turn, either a solution or a wet solid-containing mixture; for this reason, the result of NaOH addition is referred to in this description and in the claims generally as “mass”, which is intended to also include the case that the resulting mixture be a solution. If the preceding steps, and in particular the addition of sodium hydroxide, have been carried out correctly, the resulting mixture should be characterized by the same pH value achieved after dispersing LCZ-696 in the solvent or solvents mixture used to perform steps g) and h). Said standard value may be easily determined by the person skilled in the art by means of a preliminary investigation comprising the dispersion of LCZ-696 into the selected solvent or mixture of solvents and measuring the pH.
# Sacubitril (19.0 g, 46.2 mmol) and Valsartan (19.5 g, 44.8 mmol) were dissolved in acetone (1900 mL) under magnetic stirring at 25° C. A solution of sodium hydroxide (5.3 g, 132.2 mmol) in water (333 mL) was added to the former solution maintaining the resulting mixture under stirring up to obtaining a clear solution (pH=9.44). […]
substance,measurement,value
"trisodium [3-((1S,3R)-1-biphenyl-4-yl-methyl-3-ethoxycarbonyl-1-butylcarbamoyl)propionate-(S)-3′-methyl-2′-(pentanoyl{2″-(tetrazol-5-ylate)biphenyl-4′-yl-methyl}amino)butyrate]-hemi-pentahydrate [LCZ-696]",pH of the solution,9.62
